Antibody variant affinities, Ab-14 heavy chain, assay B

Target peptide (SARS-CoV-2 spike, HR2 region): PDVDLGDISGINAS

Parent: Ab-14, a human scFv built as VH, the linker GGGGSGGGGSGGGGS, VL. Only the CDRs of the heavy chain vary.
VH: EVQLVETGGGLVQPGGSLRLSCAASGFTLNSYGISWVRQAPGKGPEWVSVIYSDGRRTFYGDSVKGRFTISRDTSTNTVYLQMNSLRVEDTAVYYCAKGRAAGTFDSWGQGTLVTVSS
VL: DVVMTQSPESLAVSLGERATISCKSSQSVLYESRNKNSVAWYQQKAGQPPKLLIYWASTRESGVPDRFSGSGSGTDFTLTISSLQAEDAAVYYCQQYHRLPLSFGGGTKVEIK

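The parent was found by panning a naive human phage display library on the peptide. These sequences belong to a second round, designed from the earlier measurements on random variants of the parent. Their group label is 14H_En_Gen (En: ensemble of fine-tuned language models; Gen: genetic algorithm). The assay is AlphaSeq: two haploid yeast populations carry antibody and antigen on their surface. Mating (16 h, 30 °C) was followed by selection of diploids and sequencing of their barcodes. A regression on co-assayed BCL2-family reference pairs converts the normalised counts of each replicate to an apparent Kd. The assay was run in six technical replicates.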

Each variant is given by its three heavy chain CDRs, as the data file delimits them; those of the parent are GFTLNSYGIS, VIYSDGRRTFYGDSVK, GRAAGTFDS.
Affinities are written as log10 Kd with Kd in nM; a lower number is a better binder.
Averages over replicates are reported, and they cover detected replicates only.
"n.d." marks a missing value. The strain was present, yet no cells mated with the target were sequenced in that replicate, which points to weak or no binding.
In the paper, a design with two or fewer of six values counts as a poor binder.

| # | CDR-H1 | CDR-H2 | CDR-H3 | log10 Kd, replicates | mean, log10 nM | control signals |
|---|---|---|---|---|---|---|
| 1 | GFDLNEYGIS | VIYADGMRTAYSESVK | GENAGTFDV | -0.32 / -0.44 / -0.45 / -0.48 / -0.31 / 0.31 | -0.28 | 0 of 18 |
| 2 | GFDLNEYGIS | VIYADGKRTAYADSVK | GANAGTFDL | -0.75 / -1.10 / -0.52 / -1.00 / -0.69 / -0.85 | -0.82 | 0 of 18 |
| 3 | GFDLNEYGIS | VIYADGQRTAYIDSVK | GENAGTFDV | -0.24 / -0.59 / -0.04 / -0.07 / 0.26 / -0.04 | -0.12 | 0 of 18 |
| 4 | GFDLNEYGIS | VIYADGLRTAYTDSVK | GNVAGTFDL | -0.97 / -1.57 / -0.56 / -0.96 / -0.76 / n.d. | -0.97 | 0 of 18 |
| 5 | GFDLDEYGIS | VIYADGMRTAYTDSVK | GETAGTFDI | 0.39 / 0.13 / -0.39 / -0.43 / -0.20 / 0.14 | -0.06 | 0 of 18 |
| 6 | GFDLNEYGIS | VIYADGKRTAYADSVK | GETAGTFDT | -0.64 / -0.99 / -0.60 / -0.52 / -0.70 / -0.56 | -0.67 | 0 of 18 |
| 7 | GFDLDEYGIS | VIYADGMRTAYADDVK | GEVAGTFDL | -0.25 / -0.23 / -0.22 / -0.16 / -0.07 / -0.39 | -0.22 | 2 of 18 (1.44) |
| 8 | GFDLNEYGIS | VIYADGVRTAYVDSVK | GQNAGTFDV | -0.30 / -0.65 / -0.54 / -0.57 / -0.77 / -0.31 | -0.53 | 0 of 18 |
| 9 | GFDLNEYGIS | VIYADGMRTAYADSVK | GNVAGTFDD | 0.45 / 0.16 / -0.03 / -0.20 / -0.18 / 0.06 | 0.04 | 0 of 18 |
| 10 | GFDLDEYGIS | VIYADGQRTAYADSVK | GNVAGTFDM | -0.18 / -0.39 / -0.98 / -0.24 / -0.02 / -0.40 | -0.37 | 0 of 18 |
| 11 | GFDLNEYGIS | VIYADGVRTAYSDSVK | GQNAGTFDM | -0.24 / -0.65 / -0.23 / -0.60 / -0.38 / -0.47 | -0.43 | 0 of 18 |
| 12 | GFDLNEYGIS | VIYADGQRTYYADSVK | GENAGTFDV | -0.03 / -0.61 / -0.22 / -0.75 / -0.36 / -0.21 | -0.36 | 0 of 18 |
| 13 | GFDLNEYGIS | VIYADGMRKAYADSVK | GNTAGTFDV | -0.38 / -0.26 / -0.30 / -0.45 / -0.67 / -0.81 | -0.48 | 0 of 18 |
| 14 | GFDLEEYGIS | VIYADGQRTAYADSVK | GNVAGTFDT | -0.03 / 0.38 / -0.58 / -0.69 / 0.49 / -0.53 | -0.16 | 0 of 18 |
| 15 | GFDLNEYGIS | VIYADGVRTSYADSVK | GETAGTFDV | -1.03 / -1.15 / -1.07 / -1.03 / -1.21 / -1.05 | -1.09 | 1 of 18 (2.41) |
| 16 | GFDLNEYGIS | VIYADGRRKAYADDVK | GENAGTFDV | 0.04 / -0.24 / -0.32 / -0.34 / -0.10 / 0.20 | -0.12 | 0 of 18 |
| 17 | GFDLNEYGIS | VIYADGSRTAYIDSVK | GNQAGTFDV | 0.25 / 0.00 / -0.33 / -0.43 / -0.29 / -0.09 | -0.15 | 0 of 18 |
| 18 | GFDLDEYGIS | VIYADGMRTVYADSVK | GEVAGTFDV | -0.44 / -0.35 / -0.85 / -0.40 / -0.59 / -0.02 | -0.44 | 0 of 18 |
| 19 | GFDLDEYGIS | VIYADGMRTAYSDSVK | GETAGTFDM | 1.10 / 0.52 / 1.25 / 0.89 / 0.56 / 1.30 | 0.94 | 0 of 18 |
| 20 | GFDLNEYGIS | VIYADGMRTAYVDDVK | GNNAGTFDV | -0.63 / -0.55 / -0.38 / -0.41 / -0.75 / -0.58 | -0.55 | 0 of 18 |
| 21 | GFDLEDYGIS | VIYADGRRTAYSDSVK | GENAGTFDV | 0.96 / 0.81 / 1.03 / 0.53 / 1.24 / 1.97 | 1.09 | 1 of 18 (2.15) |
| 22 | GFDLNEYGIS | VIYADGRRTAYADSVK | GETAGTFDI | n.d. / n.d. / n.d. / n.d. / n.d. / n.d. | n.d. | 0 of 18 |
| 23 | GFDLDEYGIS | VIYADGVRTAYADNVK | GQVAGTFDV | -0.42 / -0.64 / -0.49 / -0.64 / -0.73 / -0.29 | -0.54 | 0 of 18 |
| 24 | GFDLNEYGIS | VIYADGMRSVYADSVK | GNQAGTFDV | -0.21 / -0.40 / -0.13 / -0.10 / -0.38 / -0.08 | -0.22 | 0 of 18 |
| 25 | GFDLDEYGIS | VIYADGKRTAYADSVK | GEVAGTFDV | -0.58 / -1.00 / -0.33 / -0.31 / 1.20 / -0.34 | -0.23 | 0 of 18 |
| 26 | GFDLNEYGIS | VIYADGKRTAYADDVK | GNNAGTFDT | -0.24 / -0.16 / -0.45 / -0.33 / -0.44 / -0.11 | -0.29 | 0 of 18 |
| 27 | GFDLNEYGIS | VIYADGVRTAYADDVK | GNQAGTFDT | n.d. / n.d. / n.d. / 1.49 / 1.66 / 1.85 | 1.67 | 0 of 18 |
| 28 | GFDLNEYGIS | VIYADGKRTAYADSVK | GGVAGTFDL | -0.39 / -0.62 / -0.87 / -0.62 / -0.51 / -0.47 | -0.58 | 1 of 18 (1.53) |
| 29 | GFDLNEYGIS | VIYADGKRTAYADSVK | GENAGTFDT | -0.66 / -0.25 / -1.04 / -0.95 / -0.77 / -0.81 | -0.75 | 0 of 18 |
| 30 | GFDLNEYGIS | VIYADGMRTFYADDVK | GNVAGTFDV | -0.29 / -0.51 / -0.78 / -0.76 / -0.72 / -0.47 | -0.59 | 0 of 18 |
| 31 | GFDLNEYGIS | VIYADGRRTAYADSVK | GNTAGTFDQ | -0.37 / -0.20 / -0.43 / -0.58 / -0.23 / -0.33 | -0.36 | 0 of 18 |
| 32 | GFDLNEYGIS | VIYADGMRTAYIDSVK | GEVAGTFDT | -0.57 / -0.24 / -0.37 / -0.86 / -1.06 / -0.55 | -0.61 | 0 of 18 |
| 33 | GFDLNEYGIS | VIYADGRRTAYADSVK | GNTAGTFDT | 0.14 / -0.52 / -0.38 / -0.46 / -0.01 / 0.45 | -0.13 | 0 of 18 |
| 34 | GFDLNEYGIS | VIYADGRRTAYQDSVK | GNVAGTFDV | -0.51 / -0.61 / -0.69 / -0.61 / -0.95 / -0.33 | -0.62 | 1 of 18 (2.16) |
| 35 | GFDLNEYGIS | VIYADGRRTAYVDSVK | GQNAGTFDV | -0.27 / -0.46 / -0.51 / -0.61 / -0.64 / -0.78 | -0.54 | 1 of 18 (3.15) |
| 36 | GFDLNEYGIS | VIYADGSRTAYADSVK | GNQAGTFDL | 0.06 / -0.54 / -0.53 / -0.99 / -0.17 / -0.11 | -0.38 | 0 of 18 |
| 37 | GFDLNEYGIS | VIYADGQRKAYADSVK | GNVAGTFDV | -0.51 / -0.63 / -0.67 / -0.75 / -0.81 / -0.52 | -0.65 | 0 of 18 |
| 38 | GFDLDEYGIS | VIYADGMRTAYADSVK | GNVAGTFDT | -0.12 / -0.34 / 0.10 / -0.38 / -0.11 / -0.15 | -0.16 | 0 of 18 |
| 39 | GFDLNEYGIS | VIYADGMRTVYADDVK | GNNAGTFDV | -0.30 / 0.23 / -0.56 / -0.86 / -0.46 / -0.78 | -0.45 | 0 of 18 |

The first 4 entries again:

| CDR-H1 | CDR-H2 | CDR-H3 | log10 Kd, replicates | mean, log10 nM | control signals |
|---|---|---|---|---|---|
| GFDLNEYGIS | VIYADGMRTAYSESVK | GENAGTFDV | -0.32 / -0.44 / -0.45 / -0.48 / -0.31 / 0.31 | -0.28 | 0 of 18 |
| GFDLNEYGIS | VIYADGKRTAYADSVK | GANAGTFDL | -0.75 / -1.10 / -0.52 / -1.00 / -0.69 / -0.85 | -0.82 | 0 of 18 |
| GFDLNEYGIS | VIYADGQRTAYIDSVK | GENAGTFDV | -0.24 / -0.59 / -0.04 / -0.07 / 0.26 / -0.04 | -0.12 | 0 of 18 |
| GFDLNEYGIS | VIYADGLRTAYTDSVK | GNVAGTFDL | -0.97 / -1.57 / -0.56 / -0.96 / -0.76 / n.d. | -0.97 | 0 of 18 |

The parent sequence was in this pool as ten entries: three were never detected, three once, and four in most replicates, with averages from 0.34 to 2.37.
Empty control strains, which show no peptide, gave a signal in 1% of pairings with all heavy chain designs; the median was 2.08 and 95% of these signals were weaker than 0.84. No background was subtracted. For each scFv, signals with the empty controls are counted beside the result, with their mean in brackets.
The range of this assay differs from that of the first round, and the authors advise against merging the two.

From the AlphaSeq antibody data of Li et al. 2023 (doi:10.1038/s41467-023-39022-2), copy in the FLAb collection.